# Laboratory results reported in PubChem BioAssay AID504803 (The Scripps Research Institute Molecular Screening Center, 2011).
# The chains behind the UniProt entries cited, without tags or fusion partners.
# UniProt Q92743, whole entry, looked up: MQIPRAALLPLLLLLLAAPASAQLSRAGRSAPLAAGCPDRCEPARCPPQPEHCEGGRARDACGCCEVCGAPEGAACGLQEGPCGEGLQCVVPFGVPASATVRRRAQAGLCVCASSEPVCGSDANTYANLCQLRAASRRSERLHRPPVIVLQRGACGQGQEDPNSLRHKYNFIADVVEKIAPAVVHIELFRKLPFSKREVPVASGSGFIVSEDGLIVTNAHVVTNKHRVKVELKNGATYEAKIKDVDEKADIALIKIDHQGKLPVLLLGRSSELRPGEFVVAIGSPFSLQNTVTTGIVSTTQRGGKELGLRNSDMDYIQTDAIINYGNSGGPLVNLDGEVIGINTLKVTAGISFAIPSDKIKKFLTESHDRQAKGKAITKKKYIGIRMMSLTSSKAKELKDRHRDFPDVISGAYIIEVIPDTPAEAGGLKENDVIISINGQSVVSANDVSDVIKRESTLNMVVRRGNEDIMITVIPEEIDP
# Only a part is listed here, and it is no random draw. Calls of active or inactive are those of the source. No stated cut-off is given here; in the data, active means inhibition above about 36%; inactive means the rest.
# Molecular target: Serine protease HTRA1 (Homo sapiens) (UniProt Q92743)
# Experiment: inhibition of human HTRA1 peptidase – biochemical, fluorescence polarization, HTS, primary screen (AID 504803);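 further: 0% = enzyme with DMSO and 100% = wells lacking enzyme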
# Details: recombinant HTRA1, FP-rhodamine activity-based probe, at 5.96 µM, hits give high values
row,SMILES,inhibition
1,Cc1ccccc1CN(C)C(=O)COC(=O)C(O)(c1ccccc1)c1ccccc1,inactive: -0.76%
2,C[C@H]1OP(=O)(Oc2ccccc2)C[C@@H]2O[C@@H]21 (some centres not stated),inactive: 0.73%
3,C[C@@H]1C=CCP(=O)(Oc2ccccc2)O1 (some centres not stated),inactive: -4.45%
4,CC(=O)c1ccc(N2CC2c2ccncc2)cc1 (configuration not stated),inactive: 9.19%
5,N#C/C(=C\c1ccc(N(CCBr)CCBr)cc1)C(N)=O,inactive: 3.39%
6,COC(=O)C1(C)COP(=O)(NCc2ccccc2)OC1 (configuration not stated),inactive: 2.31%
7,CC(=O)Nc1ccc([As](=O)(O)O)c(O)c1,inactive: 0.1%
8,CC(=O)Nc1ccc(Oc2c([N+](=O)[O-])cc([N+](=O)[O-])cc2[N+](=O)[O-])cc1,inactive: 10.2%
9,O=P1(Nc2nc3ccc(Cl)cc3s2)COc2ccccc2O1 (configuration not stated),inactive: 0.31%
10,CCOc1ccc(C2=NCC(CBr)S2)cc1 (configuration not stated),inactive: -1.23%
11,CC(C)(C)C(=O)NC(Sc1ccccc1)C(Cl)(Cl)Cl (configuration not stated),inactive: -11.2%
12,CCc1cc(O)c([N+](=O)[O-])c(C)c1[N+](=O)[O-],inactive: 0.64%
13,O=C(OC1CN2CCC1CC2)c1ccccc1 (configuration not stated),inactive: 2.56%
14,CCC(=O)N1C2C3N(C(=O)CC)C1C1N(C(=O)CC)C(C(N1C(=O)CC)N3C(=O)CC)N2C(=O)CC,inactive: 2.2%
15,COC(=O)c1cc2c(s1)N=C(c1ccccc1)N(C)P2(=O)N1CCOCC1 (configuration not stated),inactive: 2.23%
16,CC(=O)NC(SC(=S)N(CC(C)C)CC(C)C)C(Cl)(Cl)Cl (configuration not stated),inactive: 10%
17,Cc1ccc(OP(=O)(Nc2ccccn2)Oc2ccc(C)cc2)cc1,inactive: -13.7%
18,CC(NC(=O)COC(=O)C(O)(c1ccccc1)c1ccccc1)c1ccccc1 (configuration not stated),inactive: -7.99%
19,Cc1ccccc1OP(=O)(Nc1ccccn1)Oc1ccccc1C,inactive: -12.2%
20,O=c1c2cc([N+](=O)[O-])ccc2[nH]c2c([N+](=O)[O-])cc([N+](=O)[O-])cc12,inactive: 20.1%
21,CN(C)C(=O)Oc1noc2ccccc12,inactive: 5.86%
22,CCNC(=S)/N=C(\N)N[N+](=O)[O-],inactive: 7.81%
23,O=C(NC1CCS(=O)(=O)C1)NP(=S)(Oc1ccccc1)Oc1ccccc1 (configuration not stated),inactive: -8.32%
24,O=P1(N(CCCl)CCCl)OCCC2CCCCN21 (configuration not stated),inactive: 4.13%
25,O=[As](O)(c1ccccc1)c1ccc(O)cc1,inactive: 1.02%
26,O=[N+]([O-])c1ccc(O)c(/C=N/Nc2ccc([N+](=O)[O-])cc2[N+](=O)[O-])c1,inactive: 4.41%

row,SMILES,inhibition
1,CC(=O)NC(SC(=S)N(C)C)C(Cl)(Cl)Cl (configuration not stated),inactive: 0.26%
2,O=[N+]([O-])c1ncn(CCn2cnc([N+](=O)[O-])n2)n1,inactive: 0%
3,O=C(OC1CN2CCC1CC2)c1cccc(Cl)c1 (configuration not stated),inactive: -2.85%
4,C(Cc1nn[nH]n1)Cc1nn[nH]n1,inactive: 2.57%
5,Nc1ccc([As](=O)(O)c2ccc([N+](=O)[O-])cc2)cc1,inactive: 3.61%
6,O=P(Nc1ccccn1)(c1ccc(Br)cc1)c1ccc(Br)cc1,inactive: -9.95%
7,CN(C)C1(CNC(=O)c2ccc(Cl)c(S(N)(=O)=O)c2)CCCCC1,inactive: -2.97%
8,COc1ccc(N)c([N+](=O)[O-])c1[N+](=O)[O-],inactive: 18.7%
9,O=P(Nc1nc2ccccc2s1)(c1ccccc1)c1ccccc1,inactive: -5.54%
10,C[C@H]1OP(=O)(Oc2ccccc2)[C@H](O)[C@H](O)[C@H]1N=[N+]=[N-] (some centres not stated),inactive: -1.4%
11,CC(C)C(=O)NC(Sc1ccccc1)C(Cl)(Cl)Cl (configuration not stated),inactive: -4.84%
12,O=P(Nc1nccs1)(c1ccccc1)c1ccccc1,inactive: 2.96%
13,c1nnnn1CCn1cnnn1,inactive: 3.46%
14,CCN(/C(=N/P(=O)(N1CCOCC1)N1CCOCC1)N1CCOCC1)c1ccc(OC)cc1,inactive: 1.49%
15,Nc1ccc([As](=O)(O)c2ccc(N)cc2)cc1,inactive: -2.02%
16,C[N+]1=C2C=CC=CC=C2SC12C([N+](=O)[O-])=CC([N+](=O)[O-])=C[C-]2[N+](=O)[O-] (configuration not stated),active: 47.9%
17,CC1CCN(C(=O)Oc2c(Cl)cc(Cl)c3cccnc23)CC1,inactive: -6.25%
18,c1cc(-c2nn[nH]n2)ccc1-c1nn[nH]n1,inactive: 6.94%
19,CC(C)c1nc(Nc2ccccc2)n(P(=O)(N(C)C)N(C)C)n1,inactive: 2.83%
20,CC(C)=N/N=C(\N)N[N+](=O)[O-],inactive: 2.32%
21,CN(C)C(=O)OCCc1n(C)cc[n+]1C,inactive: 1.67%
22,COc1ccc(C2=NCC(CBr)S2)cc1 (configuration not stated),inactive: -0.38%
23,Cc1ccc(NP(=O)(Oc2ccccc2)Oc2ccccc2)nc1,inactive: -2.54%
24,CCc1nc2c(n1)c1c(non1O)c1c2no[n+]1[O-],inactive: 21.2%
25,O=[N+]([O-])c1cc([N+](=O)[O-])c(CCNc2ccccc2)c([N+](=O)[O-])c1,active: 38.1%
26,O=[N+]([O-])c1cccc2n[nH]nc12,inactive: 1.41%

row,SMILES,inhibition
1,CC(=O)N1C2C3N(C(C)=O)C1C1N(C(C)=O)C(C(N1C(C)=O)N3C(C)=O)N2C(C)=O,inactive: 1.12%
2,O=[N+]([O-])c1ncn(CCn2ncnc2[N+](=O)[O-])n1,inactive: 1.2%
3,CC(C)(C)C(=O)NC(Sc1ccncn1)C(Cl)(Cl)Cl (configuration not stated),inactive: 1.75%
4,O=C(O)CNc1ccc([As](=O)(O)O)cc1,inactive: 0.31%
5,COC(=O)C1(C)COP(=O)(Nc2ccccc2)OC1 (configuration not stated),inactive: 7.72%
6,O=[N+]([O-])c1cccc(NC2=NCC(CBr)S2)c1 (configuration not stated),inactive: 2.49%
7,O=P1(N(CCCl)CCCl)OCCCS1 (configuration not stated),inactive: 2.89%
8,O=C(Nc1cc([As](=O)(O)O)ccc1O)c1ccccc1,inactive: 2.55%
9,Nc1cccc2ccc([As](=O)(O)O)cc12,inactive: 25%
10,CCN(N=Nc1nonc1N)c1nonc1N,inactive: -5.36%
11,O=P(Nc1nc2ccc(Cl)cc2s1)(c1ccccc1)c1ccccc1,inactive: -30.8%
12,CN(C)P(=O)(N(C)C)n1c(Nc2ccccc2)nnc1-c1ccccc1,inactive: -5.22%
13,CC(=O)Nc1ccc([As](=O)(O)O)cc1,inactive: 3.96%
14,O=C(O)c1ccccc1[As](=O)(O)O,inactive: 2.79%
15,CCCC1OP(N)(=O)OCC1CC (configuration not stated),inactive: 6.07%
16,Cc1cc(SC(NC(=O)c2ccc(F)cc2)C(Cl)(Cl)Cl)ncn1 (configuration not stated),inactive: 2.11%
17,CCOP(=O)(Nc1ccccc1)OCC,inactive: 0.04%
18,Cc1ccc(NP(=O)(Oc2ccccc2F)Oc2ccccc2F)nc1,inactive: 11.4%
19,CN(C(=O)Cc1ccc(Cl)c(Cl)c1)[C@H]1CCCC[C@@H]1N1CCCC1,inactive: -3.28%
20,Oc1ccccc1CNc1ccccn1,inactive: 1.17%
21,O=C(NC(Sc1ccncn1)C(Cl)(Cl)Cl)c1ccccc1 (configuration not stated),inactive: -0.7%
22,Nc1cc(N)c2nonc2c1[N+](=O)[O-],inactive: 2.74%
23,CC(C)CC(=O)NC(Sc1ccc(Cl)cc1)C(Cl)(Cl)Cl (configuration not stated),inactive: -14.3%
24,CN(C(=O)Cc1ccc(Cl)c(Cl)c1)[C@H]1CCCC[C@H]1N1CCCC1,inactive: 6.01%
25,Cc1ccc(N/C(=N/P(=O)(N2CCOCC2)N2CCOCC2)N2CCOCC2)cc1,inactive: -14.8%
26,NC(=O)c1cc([N+](=O)[O-])cc([N+](=O)[O-])c1N,inactive: 11.3%

row,SMILES,inhibition
1,CN1CCCC(OC(=O)C(c2ccccc2)c2ccccc2)C1 (configuration not stated),inactive: -0.68%
2,Clc1ccc(Cl)c(NC2=NCC(CBr)S2)c1 (configuration not stated),inactive: -9.62%
3,COc1ccccc1OP(=O)(Nc1ccc(C)cn1)Oc1ccccc1OC,inactive: -6.28%
4,O=[N+]([O-])c1cc(Oc2ccc([N+](=O)[O-])cc2C(F)(F)F)cc([N+](=O)[O-])c1,inactive: -2.77%
5,COc1ccc(N/C(=N/P(=O)(N2CCOCC2)N2CCOCC2)N2CCOCC2)cc1,inactive: 3.73%
6,Cc1c2c(nc3ccccc13)SC(C(Cl)Cl)C2 (configuration not stated),inactive: -12.9%
7,O=C(OC1CN2CCC1CC2)C12CC3CC(CC(C3)C1)C2 (configuration not stated),inactive: 1.73%
8,Cc1cc(=O)[nH]c(N[N+](=O)[O-])n1,inactive: 7.75%
9,O=P1(N(CCCl)CCCl)OCCCN1CCCl (configuration not stated),inactive: 1.87%
10,O=P1(N(CCCl)CCCl)Nc2ccccc2N1,inactive: -0.86%
11,COc1ccc2nc(NP(=O)(c3ccccc3)c3ccccc3)sc2c1,inactive: -10.2%
12,COc1cc(I)ccc1[As](=O)(O)O,inactive: 0.16%
13,ClCCSc1nnc(-c2cccnc2)o1,inactive: 4.04%
14,COC(=O)C1(C)COP(=O)(N2CCCCCC2)OC1 (configuration not stated),inactive: 3.51%
15,CC(C)c1ccc(OP(=O)(Nc2ccccn2)Oc2ccccc2F)cc1 (configuration not stated),inactive: -2.58%
16,CCN(CC)C(=S)SC(NC=O)C(Cl)(Cl)Cl (configuration not stated),inactive: -0.38%
17,O=C(OC1CN2CCC1CC2)c1cccc2[nH]cnc12 (configuration not stated),inactive: -2.29%
18,O=[N+]([O-])c1cc([N+](=O)[O-])c(-c2ccn[nH]2)s1,inactive: 0.2%
19,O=[As](O)(c1ccc(O)cc1)c1ccccc1O,inactive: 1.85%
20,C[As](=O)(O)c1cccc(C(=O)O)c1,inactive: -1.19%
21,O=[N+]([O-])c1ccc(-c2cc([N+](=O)[O-])c(O)c([N+](=O)[O-])c2)cc1,inactive: -11.9%
22,COc1cc(C(=O)NCC2(N3CCOCC3)CCCCC2)ccc1OCC(C)C,inactive: -1.45%
23,Cc1ccc(OP(=O)(Nc2ccc([N+](=O)[O-])cn2)Oc2ccc(C)cc2)cc1,inactive: 6.94%
24,Cc1ccc2nc3c(c(C)c2c1)CC(C(Cl)Cl)S3 (configuration not stated),inactive: -26.3%
